According to patent US20110112032A1, “Regulation of Brain Natriuretic Peptide and Catecholamines for the Treatment of Cardiovascular Diseases” (priority 2005, published 2011):
Like-named read-outs stand apart in the source and are kept apart here.

How the values were obtained:
[1] = tested on: intrinsic cardiac adrenergic cells; details: for reduction of amplitude of [Ca2+]i transients of intrinsic cardiac adrenergic cells: n=8
[2] = tested on: myocytes co-cultured with intrinsic cardiac adrenergic cells; assay: Effect of b1-adrenergic blockade on myocyte [Ca2+]i transients and beating rate in co-culture; assay type: cell-based, rat
[3] = tested on: intrinsic cardiac adrenergic cells; assay type: cell-based, rat

## COC(=O)C1=C(C)NC(C)=C(C(=O)OC)C1c1ccccc1[N+](=O)[O-] [Nifedipine, nifedipine]
[1]; nifedipine 1 mM
  reduction of amplitude of [Ca2+]i transients of intrinsic cardiac adrenergic cells: 54±8%
[1]; nifedipine 10 mM
  reduction of amplitude of [Ca2+]i transients of intrinsic cardiac adrenergic cells: 82±3%

## NC1=N[C@H](O)[C@H]2[C@H]3O[C@]4(O)O[C@@H]([C@@H](O)[C@@]2(N1)[C@@H]4O)[C@]3(O)CO [tetrodotoxin]
[1]
  spike frequency of [Ca2+]i transients of intrinsic cardiac adrenergic cells after administration: 0 spikes/min

## CC(C)NCC(O)COc1ccc(CC(N)=O)cc1 (stereo not drawn) [Atenolol]
[2]; 1 nM
  decrease in beating rate of myocytes: 16±7
  reduction of amplitude of myocyte [Ca2+]i transients: 19±9
[2]; 10 nM
  decrease in beating rate of myocytes: 26±8
  reduction of amplitude of myocyte [Ca2+]i transients: 37±4
[2]; 100 nM
  decrease in beating rate of myocytes: 57±11
  reduction of amplitude of myocyte [Ca2+]i transients: 49±8
[2]; 100 nM, single myocyte
  reduction in the amplitude of [Ca2+]i transients of a myocyte: 40%
[2]; 100 nM, single myocyte, from 66 beats/minute
  myocyte beating rate after administration: 7 beats/minute
[2]; 1 μM
  effect on myocyte beating: stops the myocyte beating
[2]; 1000 nM
  decrease in beating rate of myocytes: 62±13
  reduction of amplitude of myocyte [Ca2+]i transients: 75±10
[1]; 1000 nM
  frequency of [Ca2+]i transients of intrinsic cardiac adrenergic cells: did not significantly increase
[1]; concentration not given
  effect on [Ca2+]i transients of intrinsic cardiac adrenergic cells: not significantly affected

## [D-Pen^25]-enkephalin [DPDPE]
[3]
  enhanced epinephrine release during recovery phase after removal: persists
  increase in epinephrine release from intrinsic cardiac adrenergic cells: 2.4 fold
[1]
  activation of intrinsic cardiac adrenergic cells in the presence of protein kinase A inhibition: failed to activate
  effect on [Ca2+]i transients in intrinsic cardiac adrenergic cells: increases
  enhanced [Ca2+]i transients in the presence of δ-opioid receptor antagonist NPI: failed to generate enhanced [Ca^2+]i transients
  excitatory action of DPDPE in the presence of Rp CAMP, a protein kinase A inhibitor: is blocked
  excitatory effect of DPDPE on [Ca2+]i transients following application of nifedipine: completely abolished
  increase in [Ca2+]i transients generated by intrinsic cardiac adrenergic cells: 5 fold
